Results on 1 compound are retold here after PubChem BioAssay (NCI).

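48-hour exposure; five concentrations; linearly interpolated endpoints. GI50 marks 50% less growth. TGI denotes the concentration required for complete inhibition of growth.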

The subject of the experiment is MDA-MB-468 breast. As to the kind of experiment: NCI tumour cell line growth inhibition, 48 h.

Consider `Cc1ccc(Sc2ccc([N+](=O)[O-])cc2[N+](=O)[O-])c([N+](=O)[O-])c1`, for which the GI50 is 0.343 µM and the TGI came to 10.6 µM.
